Settings: in vivo

Q: Which “toxicity (therapeutic index)” value does the source give for “ether of 10 - methylencarboxylat-9-acridone [The proposed drug]” here?
A: Its value is 100-500.

Source: patent EP0820772A1, “IMMUNOMODULATING MEDICINAL AGENT” (Travkin, Oleg Viktorovich, priority 1995, dated 1996)
